{"source": "ChEMBL document CHEMBL4627251", "about": "“Identification of potent pyrazole based APELIN receptor (APJ) agonists” (Bioorg Med Chem, 2020)", "key": {"Apelin receptor [1]": {"biological_target": "T1, Apelin receptor (Homo sapiens, UniProt P35414)", "T1 sequence (P35414 whole entry)": "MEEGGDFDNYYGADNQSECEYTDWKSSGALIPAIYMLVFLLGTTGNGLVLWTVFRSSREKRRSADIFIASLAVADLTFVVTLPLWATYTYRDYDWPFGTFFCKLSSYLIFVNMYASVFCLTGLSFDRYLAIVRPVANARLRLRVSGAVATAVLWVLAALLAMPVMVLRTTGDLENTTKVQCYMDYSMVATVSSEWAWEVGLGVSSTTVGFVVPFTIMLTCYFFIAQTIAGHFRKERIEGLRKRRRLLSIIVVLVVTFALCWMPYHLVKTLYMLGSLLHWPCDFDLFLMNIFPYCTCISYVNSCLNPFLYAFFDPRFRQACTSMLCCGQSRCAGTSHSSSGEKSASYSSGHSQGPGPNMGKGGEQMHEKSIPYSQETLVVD"}, "Apelin receptor [2]": {"biological_target": "T1, Apelin receptor", "remark": "listed apart in the source"}}}
{"compound": "COc1cccc(OC)c1-c1cc(C(=O)N[C@@H](CCC2CCCCC2)CC(=O)O)nn1C1CCCCC1", "values": [{"measurement": "EC50", "setting": "Apelin receptor [1]", "result": 0.518, "unit": "µM"}, {"measurement": "EC50", "setting": "Apelin receptor [2]", "result": 3.26, "unit": "µM"}]}
